Source: article PMC4600463 (European journal of medicinal chemistry, 2015)

Tested on: Nrf2 target genes HMOX1 and NQO1 in MLE12 (mouse lung alveolar epithelial cell line) cells
Conditions: 10 μM, 6 h, MLE-12 cells, Western blot

CCOC(=O)CN(c1ccc(NS(=O)(=O)c2ccc(OC)cc2)c2ccccc12)S(=O)(=O)c1ccc(OC)cc1
Induction of HMOX1 (in words): potently induced
Induction of Nrf2 target genes HMOX1 and NQO1 (in words): levels similar to that of the well-known electrophilic activator sulforaphane
Stabilization of Nrf2 protein levels (in words): stabilized Nrf2 levels
